Measurements from PubChem BioAssay AID1159524 (National Center for Advancing Translational Sciences (NCATS), 2015).
The list shows a part of the results, in another mix than the full data. Some results for these compounds are left out of this collection, so the calls shown say nothing about other tests. Records with an inconclusive call do not appear. Calls of active or inactive are those of the source. The call rests on the fitted dose curve; tested in HEK293T cells.
On the % scale 0 is the no-effect control and ±100 the full control effect.

Test: High Throughput Screening for Foot and Mouth Disease Virus Antivirals; further: read-out not given here; nearly all actives have a fitted effect of over 45% in size
Conditions: FMDV antiviral cell-based qHTS; at 57.9 µM (top of the series)
With C=CCN1CCN(CCOC(=O)C(O)(c2ccccc2)c2ccccc2)CC1 the activity change, negative = inhibition was inactive: -5.61%. With CC(C)N1C(=O)CC2(CCN(CCOC(=O)C(O)(c3ccccc3)c3ccccc3)CC2)C1=O the activity change, negative = inhibition was inactive: -8.04%.
